System: NZW rabbits
Assay: Intravitreal safety studies (fundus, IOP, ERG, OCT, GFAP, TUNEL)

asialo, galactosylated, triantennary (NA3) oligosaccharides
Safe multiple of the predicted efficacious dose: up to 100 ×
Toxicity to the eye (intravitreal, 1 nM and 100 nM, up to 2 weeks post-administration): non-toxic

Reference: patent US9149426B2, “Nanoparticle composition and methods to make and use the same” (priority 2012, dated 2015)
